Test results taken from ChEMBL document CHEMBL1132549, “Design and structure-activity relationship of a new class of potent VEGF receptor tyrosine kinase inhibitors” (J Med Chem, 1999).

Chains of the proteins cited; added tags and fusions are not shown.
UniProt P17948, whole entry: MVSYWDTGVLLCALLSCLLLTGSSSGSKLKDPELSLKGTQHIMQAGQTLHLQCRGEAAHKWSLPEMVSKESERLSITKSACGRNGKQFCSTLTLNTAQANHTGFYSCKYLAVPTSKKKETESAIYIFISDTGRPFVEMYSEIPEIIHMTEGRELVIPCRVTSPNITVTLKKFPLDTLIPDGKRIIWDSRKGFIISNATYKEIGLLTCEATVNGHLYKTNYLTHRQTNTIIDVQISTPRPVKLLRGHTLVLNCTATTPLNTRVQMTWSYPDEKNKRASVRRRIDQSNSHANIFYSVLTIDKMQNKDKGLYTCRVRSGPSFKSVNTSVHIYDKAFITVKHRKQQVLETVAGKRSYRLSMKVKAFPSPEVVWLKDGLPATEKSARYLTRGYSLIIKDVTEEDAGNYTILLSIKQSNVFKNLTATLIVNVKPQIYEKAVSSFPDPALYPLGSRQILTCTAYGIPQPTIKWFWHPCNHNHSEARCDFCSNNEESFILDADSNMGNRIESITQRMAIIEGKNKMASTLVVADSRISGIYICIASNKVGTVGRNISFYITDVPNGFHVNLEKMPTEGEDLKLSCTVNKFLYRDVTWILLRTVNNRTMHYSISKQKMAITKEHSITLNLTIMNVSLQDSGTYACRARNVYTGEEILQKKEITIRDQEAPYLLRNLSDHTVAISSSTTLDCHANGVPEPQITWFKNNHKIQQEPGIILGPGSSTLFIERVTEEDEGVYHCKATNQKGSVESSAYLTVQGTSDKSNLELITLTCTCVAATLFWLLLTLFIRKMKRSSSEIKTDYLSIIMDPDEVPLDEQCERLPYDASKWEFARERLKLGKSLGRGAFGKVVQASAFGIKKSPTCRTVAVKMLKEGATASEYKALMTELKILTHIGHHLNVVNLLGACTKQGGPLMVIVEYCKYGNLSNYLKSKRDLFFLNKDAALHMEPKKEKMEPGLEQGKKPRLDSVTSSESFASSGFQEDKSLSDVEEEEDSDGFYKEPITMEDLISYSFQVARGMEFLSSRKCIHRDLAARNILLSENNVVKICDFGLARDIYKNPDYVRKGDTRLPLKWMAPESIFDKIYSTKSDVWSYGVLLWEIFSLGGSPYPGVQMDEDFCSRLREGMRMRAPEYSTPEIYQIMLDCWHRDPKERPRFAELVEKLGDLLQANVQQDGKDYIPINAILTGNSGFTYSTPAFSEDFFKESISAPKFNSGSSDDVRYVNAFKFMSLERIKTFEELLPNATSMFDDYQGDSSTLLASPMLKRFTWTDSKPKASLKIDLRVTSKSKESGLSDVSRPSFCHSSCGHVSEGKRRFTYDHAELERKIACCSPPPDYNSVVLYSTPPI

Target: Vascular endothelial growth factor receptor 1 (Homo sapiens, UniProt P17948)

## COc1cc2c(Nc3ccc(Cl)cc3F)ncnc2cc1OCCCN1CCOCC1
  IC50: 0.2 µM
